Results published in US20250171438A1 (Agios Pharmaceuticals, Inc., priority 2022, published 2025).

Chains of the proteins cited; added tags and fusions are not shown.
UniProt P00439, whole entry R408W: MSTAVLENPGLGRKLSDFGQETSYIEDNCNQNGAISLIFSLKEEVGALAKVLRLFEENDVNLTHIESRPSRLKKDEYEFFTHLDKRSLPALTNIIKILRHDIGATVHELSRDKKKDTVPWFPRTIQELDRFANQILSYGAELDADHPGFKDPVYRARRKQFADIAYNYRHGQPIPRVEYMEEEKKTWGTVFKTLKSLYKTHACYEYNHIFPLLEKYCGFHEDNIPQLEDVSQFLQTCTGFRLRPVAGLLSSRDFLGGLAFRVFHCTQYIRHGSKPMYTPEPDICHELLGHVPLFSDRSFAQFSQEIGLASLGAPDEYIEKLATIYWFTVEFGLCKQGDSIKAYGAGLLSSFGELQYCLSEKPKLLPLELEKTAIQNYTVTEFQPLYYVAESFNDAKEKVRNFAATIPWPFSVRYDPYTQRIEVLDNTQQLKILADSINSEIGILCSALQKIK

Biological target: human PAH with the R408W mutation (Homo sapiens, UniProt P00439, R408W)
Experiment: Cell Based Phenylalanine Flux Assay
Details: A375 cells expressing human R408W PAH; 24 hrs compound incubation; 13C-Tyrosine by LC-MS; average where tested multiple times

AC50: > 5 µM
Compound: Fc1ccc2nc(C3c4nc[nH]c4CCN3Cc3nccs3)[nH]c2c1 (stereo not shown)
